Paper PMC5047689 (Disease Models & Mechanisms, 2016)

System: ALK (phospho-ALK-Y1278) and downstream signaling
Test: Immunoblotting of ALK signaling in CLB-BAR and CLB-GE neuroblastoma cells
Type: cell-based, human
Conditions: 6 h treatment, western blot
Method: Fig. 1. […] Treatment of neuroblastoma cells with the ALK TKIs crizotinib and PF-06463922. (A,B) Proliferation was assessed over 5 days using the resazurin cell proliferation assay in the following neuroblastoma cell lines: CLB-BAR, CLB-GE, CLB-PE, SK-N-AS and IMR32. Neuroblastoma cell line characteristics: CLB-GE – MYCN amplified, 1p deletion, 17q gain, amplified ALK amplicon containing an ALK^F1174V mutation; CLB-BAR – amplified MYCN/ALK, Δexon 4-11, 1p deletion, 17q gain; IMR32 – MYCN, wt sequence but exons 2-4 are amplified, 1p deletion, 17q gain; CLB-PE – 1p gain, amplified MYCN, 17q gain; SK-N-AS – IGF-1 overexpressing, 1p deletion, 1q gain, 17q gain, 17 deletion. […] Cells were harvested and pre-cleared cell lysates were analyzed on SDS PAGE followed by western blotting for ALK, phospho-ALK-Y1278, phospho-ERK5, pan-ERK5 phospho-ERK1/2 and pan-ERK. Actin was employed as a loading control. Protein band intensities were quantified by Image Studio Lite 3.1 and normalized to untreated samples.
The neuroblastoma CLB cell lines were from Valerie Combaret (Centre Leon Berard, France) under material transfer agreement and all cell lines were authenticated during the investigation with Affymetrix Cytoscan High Density array and compared with earlier cytoscans ([Schleiermacher et al., 2003]). […]

C[C@@H](Oc1cc(-c2cnn(C3CCNCC3)c2)cnc1N)c1c(Cl)ccc(F)c1Cl [crizotinib]
ALK Y1278 phosphorylation: loss of tyrosine 1278 (Y1278) phosphorylation on ALK
downstream signaling, pERK1/2 and pERK5: inhibition of downstream signaling
